Compound activity (PubChem BioAssay)
TrxR1 substrate – is turned over as a substrate by rat TrxR1 | O89049 | purified TrxR1 substrate turnover, NADPH consumption readout | Potency, µM (titrated, usually from 114 µM), without a hit: at the top dose activity change, negative = substrate turnover | hit rate 0.01% among 390,000; also: potency is read from the fitted curve at half-maximal effect; % is scaled to controls: 0 for no effect and ±100 for the full control effect; nearly all actives have a fitted effect of over 50% in size
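Rat TrxR1, dispensed at 90 nM, was prereduced with 400 uM NADPH (final) for 5 min at ~22 deg C, then incubated with compound 15 min before 400 uM selenite. A first-read NADPH fluorescence drop versus no-compound background flagged substrates.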
GALK inhibitor – inhibitors of human galactokinase; P51570; Purified GALK, Kinase-Glo residual ATP luminescence; Potency, µM (series often up to 57.5 µM), for the others: top-dose activity change, negative = inhibition, usual class: inhibitors; hit rate 0.007% among 270,000; also: potency is read from the fitted curve at half-maximal effect; % is scaled to controls: 0 for no effect and ±100 for the full control effect
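Compounds were pin-transferred into ATP buffer (35 uM final), then GALK plus galactose (5 nM, 100 uM final) was added. After 1 h at room temperature, Kinase-Glo Plus was added and luminescence read after 10 min.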
miR-21 reporter – raises the signal of a miR-21 reporter | HeLa miR-21 FLuc reporter, luciferase, 48 h | Potency, µM (highest dose often 38.3 µM), inactives show at the highest dose reporter change, positive = more light | 340,000 tested, under 10 active | AID 2288; active = well fitted rising curve with a large enough effect; inconclusive = small, poorly fitted or top-dose-only effect; inactive = no such curve, though single readings can be large or run the other way;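 note: % of control where 0% means no effect; miR-21 action dims this reporter so a rising signal means less miR-21 action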
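HeLa cells endogenously expressing miR-21, stably carrying CMV-driven firefly luciferase with a downstream miR-21 binding site, 2000 cells/well. Titrations up to approximately 40 uM, 48 hours; luciferase luminescence read.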
TrxR1 inh – blocks rat thioredoxin reductase 1; O89049; recombinant rTrxR1, NADPH fluorescence consumption, selenite substrate; Potency, µM (top dose mostly 114 µM), for inactives: top-dose activity change, negative = inhibition, hits mostly inhibitors; hit rate 1% among 390,000; AID 588453; also: potency is read from the fitted curve at half-maximal effect; % is scaled to controls: 0 for no effect and ±100 for the full control effect; nearly all actives have a fitted effect of over 65% in size
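Rat TrxR1 (90 nM in the dispensed reagent) was pre-reduced with 400 uM NADPH for 5 min at room temperature, then incubated with compound for 15 min. After 400 uM selenite was added, NADPH fluorescence (Ex 340/Em 450 nm) was followed for 8 min.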
PINK1 modulator – modulators of PINK1 expression. Potency, µM (highest dose often 76.6 µM), for the others: top-dose activation (PINK1 increase), actives largely listed as activators. hit rate 0.2% among 410,000. PINK1 immunofluorescence, high-content cytometry, 24 h; active = well fitted activation curve with a large enough effect; inconclusive = small, poorly fitted or top-dose-only effect; cell line not stated here; also: potency is read from the fitted curve at half-maximal effect; % of control where 0% means no effect; nearly all actives have a fitted effect of over 65% in size
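PINK1 protein level read as immunofluorescence by microplate cytometer in a fixed, stained stable cell line after 24 h exposure to five compound concentrations, with CCCP as control.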
Starred values were filed as active, the others as inactive; [ ] = another dose, or the depositor's remark. Hits are enriched below; roughly 1.1% of the tested compounds scored in any of these assays. Unless noted, calls follow the shape of the dose curve; as a rule, active = well fitted curve in the direction sought with a large enough effect; inconclusive = small, poorly fitted or top-dose-only effect, or another doubt; inactive = no such curve, though single readings can be large; an effect the other way counts as inactive or inconclusive.

What do the screens show for `N#CC1=C(N)SC(N)=C(C#N)C1c1ccnc2ccccc12`?
TrxR1 substrate: 1.9%; GALK inhibitor: 1.8%; miR-21 reporter: -2.2%; TrxR1 inh: 31.6µM*; PINK1 modulator: -0.2%

How did CCC(=O)N1c2ccc(S(=O)(=O)CCC(=O)NCc3ccc(OC)cc3)cc2CC1C (stereo not drawn) do in these assays?
TrxR1 substrate: -4.9%; miR-21 reporter: 23.4%; TrxR1 inh: 28.2%; PINK1 modulator: 0.7%

Results for Cc1ccc(NC(=O)N/C=C/c2ccco2)cc1C ?
TrxR1 substrate: 1.7%; GALK inhibitor: -4.6%; miR-21 reporter: -12.4%; TrxR1 inh: inconclusive; PINK1 modulator: -0.7%

How did CCc1ccccc1NC(=O)c1cccc(NC(=O)/C=C/c2ccco2)c1 do in these assays?
TrxR1 substrate: -12.3%; GALK inhibitor: -0.3%; miR-21 reporter: 0.5%; TrxR1 inh: inconclusive; PINK1 modulator: -1.6%

How did O=C(/C=C/c1ccco1)Nc1cccc(C(=O)Nc2ccccc2C(=O)O)c1 do in these assays?
TrxR1 substrate: -7.9%; GALK inhibitor: 2.0%; miR-21 reporter: 2.2%; TrxR1 inh: 11.2µM*; PINK1 modulator: -0.1%

How did Cc1ccc(NC(=O)c2cccc(NC(=O)/C=C/c3ccco3)c2)cc1C do in these assays?
TrxR1 substrate: -5.8%; GALK inhibitor: -1.4%; miR-21 reporter: -14.5%; TrxR1 inh: 20µM*; PINK1 modulator: 9.0%

How did Cc1cc(N2CCC(C(=O)Nc3ccccc3Cl)CC2)n2nc(C)c(-c3ccc(Cl)cc3)c2n1 do in these assays?
TrxR1 substrate: 2.6%; miR-21 reporter: 3.5%; TrxR1 inh: 17.2%; PINK1 modulator: 1.8%

How did CCOc1ccccc1CNS(=O)(=O)c1cnc(N)nc1 do in these assays?
TrxR1 substrate: 5.5%[57.1 µM]; miR-21 reporter: 2.1%; TrxR1 inh: 19.0%[57.1 µM]; PINK1 modulator: -1.3%

How did CCn1c(-c2ccccc2F)nc2cc(C(=O)NCc3ccc(C)o3)cc(NC(C)=O)c21 do in these assays?
PINK1 modulator: -0.4%

How did Cc1nc(SCC(=O)c2ccccc2)c(C#N)c(-c2ccco2)c1C(=O)NCc1ccco1 do in these assays?
TrxR1 substrate: 15.2%; GALK inhibitor: -0.2%; miR-21 reporter: 2.3%; TrxR1 inh: 50.1µM*; PINK1 modulator: 1.7%

The final 3 compounds of the part before lead into the next.
How did CCOc1ccccc1CNS(=O)(=O)c1cnc(N)nc1 do in these assays?
TrxR1 substrate: 5.5%[57.1 µM]; miR-21 reporter: 2.1%; TrxR1 inh: 19.0%[57.1 µM]; PINK1 modulator: -1.3%

How did CCn1c(-c2ccccc2F)nc2cc(C(=O)NCc3ccc(C)o3)cc(NC(C)=O)c21 do in these assays?
PINK1 modulator: -0.4%

How did Cc1nc(SCC(=O)c2ccccc2)c(C#N)c(-c2ccco2)c1C(=O)NCc1ccco1 do in these assays?
TrxR1 substrate: 15.2%; GALK inhibitor: -0.2%; miR-21 reporter: 2.3%; TrxR1 inh: 50.1µM*; PINK1 modulator: 1.7%

Results for CCCS(=O)(=O)c1nc(S(=O)(=O)c2ccc(C)cc2)c(NC(C)c2ccccc2)s1 (stereo not drawn) ?
TrxR1 substrate: 2.7%; miR-21 reporter: 0.4%; TrxR1 inh: 35.5µM*; PINK1 modulator: -0.3%

What do the screens show for `CCS(=O)(=O)c1nc(S(=O)(=O)c2ccc(C)cc2)c(NC(C)c2ccccc2)s1` (stereo not drawn)?
TrxR1 substrate: 0.4%; miR-21 reporter: -0.4%; TrxR1 inh: 13.1%; PINK1 modulator: -0.4%

Results for COc1ccc(Nc2cnn(-c3nc4ccccc4s3)c(=O)c2Cl)cc1 ?
TrxR1 substrate: -2.3%; GALK inhibitor: -0.9%; miR-21 reporter: -35.1%; TrxR1 inh: 3.16µM*; PINK1 modulator: inconclusive

What do the screens show for `CN(C)CC(C)(C)CNC(=O)c1cnn(-c2nccc(-c3ccc4c(c3)OCO4)n2)c1-c1ccco1`?
PINK1 modulator: -0.5%

How did CCCCCn1c(=O)c2ccccc2n2c(CCl)nnc12 do in these assays?
TrxR1 substrate: -2.9%[57.1 µM]; GALK inhibitor: 5.1%; miR-21 reporter: 27.1%; TrxR1 inh: inconclusive; PINK1 modulator: -1.9%

Results for CC(C)CCn1c(=O)c2ccccc2n2c(CCl)nnc12 ?
TrxR1 substrate: 12.6%[57.1 µM]; GALK inhibitor: 8.1%; miR-21 reporter: inconclusive; TrxR1 inh: 22.4µM*; PINK1 modulator: 0.2%

Results for CN(C)c1ccc(/C=C/c2ccnc3cc(Cl)cc(Cl)c23)cc1 ?
TrxR1 substrate: -3.9%; TrxR1 inh: 33.4%[0.0914 µM]; PINK1 modulator: -0.3%

How did Fc1ccc(C2=CC(c3ccco3)n3ncnc3N2)cc1 (stereo not drawn) do in these assays?
TrxR1 substrate: 88.2%; GALK inhibitor: -1.2%; miR-21 reporter: -3.8%; TrxR1 inh: inconclusive; PINK1 modulator: -0.6%

How did COc1ccc(C2C=C(c3ccc(C)cc3)Nc3ncnn32)cc1 (stereo not drawn) do in these assays?
TrxR1 substrate: 75.4%; GALK inhibitor: -0.8%; miR-21 reporter: -7.1%; TrxR1 inh: -3.4%; PINK1 modulator: 5.2%

Results for Fc1ccc(C2=CC(c3ccc(Br)o3)n3ncnc3N2)cc1 (stereo not drawn) ?
TrxR1 substrate: 29.1%; GALK inhibitor: 2.8%; miR-21 reporter: 6.3%; TrxR1 inh: 7.94µM*; PINK1 modulator: 0.8%

How did Cc1ccc(C2C=C(c3ccccc3)Nc3ncnn32)cc1 (stereo not drawn) do in these assays?
TrxR1 substrate: 21.8%; TrxR1 inh: 44.7µM*; PINK1 modulator: -0.7%

What do the screens show for `COc1ccc(CCc2c[nH]c(=O)c3cncnc23)cc1OC`?
TrxR1 substrate: -3.2%; TrxR1 inh: 7.9%; PINK1 modulator: 1.8%

What do the screens show for `COc1ccc(Cc2c(C)nn(-c3nc(C)c(C(=O)Nc4ccc(C)cc4C)s3)c2C)cc1`?
TrxR1 substrate: 4.8%; miR-21 reporter: -2.3%; TrxR1 inh: 15.6%; PINK1 modulator: 1.3%

Results for C=CCn1c(SCC(=O)N(CC)C2CCS(=O)(=O)C2)nc2scc(-c3ccccc3)c2c1=O (stereo not drawn) ?
TrxR1 substrate: -7.6%; TrxR1 inh: 44.7µM*; PINK1 modulator: 3.5%

Results for CCN(C(=O)CSc1nc2scc(-c3ccccc3)c2c(=O)n1C)C1CCS(=O)(=O)C1 (stereo not drawn) ?
TrxR1 substrate: 3.3%; TrxR1 inh: 25.1%; PINK1 modulator: 12.1%

Results for CCc1ccccc1N(CC)C(=O)c1cc2c(s1)-c1ccccc1OC2 ?
TrxR1 substrate: 32.0%; miR-21 reporter: 9.3%; TrxR1 inh: 51.8%; PINK1 modulator: 19.4%

Results for O=C(O)COc1ccc2nsnc2c1Cl ?
TrxR1 substrate: 126.1%; GALK inhibitor: 6.5%; miR-21 reporter: -2.8%; TrxR1 inh: 10.4%; PINK1 modulator: 2.4%

What do the screens show for `Cc1ccccc1C1=C/C(=C(\SS/C(C(=O)c2ccc(OCC(=O)O)c(Cl)c2Cl)=C2\C=C(c3ccccc3C)SS2)C(=O)c2ccc(OCC(=O)O)c(Cl)c2Cl)SS1`?
TrxR1 substrate: -16.8%; TrxR1 inh: inconclusive; PINK1 modulator: 35.5µM*

How did COCCN1CCn2c(nc3cc(NC(=O)c4cccs4)ccc32)C1 do in these assays?
TrxR1 substrate: -0.3%; GALK inhibitor: -0.1%; miR-21 reporter: -38.1%; TrxR1 inh: 44.7µM*; PINK1 modulator: -0.4%[38.3 µM]

How did CCCC(=O)Nc1ccc2c(c1)nc1n2CCN(CCOC)C1 do in these assays?
TrxR1 substrate: 48.7%[57.1 µM]; GALK inhibitor: 4.1%; miR-21 reporter: 0.0%; TrxR1 inh: inconclusive; PINK1 modulator: 0.7%
